# Target: HIF-2α (Homo sapiens, UniProt Q99814)
# Sequences of proteins named here, by UniProt entry; tags and fusion partners are left off.
# UniProt Q99814, whole entry: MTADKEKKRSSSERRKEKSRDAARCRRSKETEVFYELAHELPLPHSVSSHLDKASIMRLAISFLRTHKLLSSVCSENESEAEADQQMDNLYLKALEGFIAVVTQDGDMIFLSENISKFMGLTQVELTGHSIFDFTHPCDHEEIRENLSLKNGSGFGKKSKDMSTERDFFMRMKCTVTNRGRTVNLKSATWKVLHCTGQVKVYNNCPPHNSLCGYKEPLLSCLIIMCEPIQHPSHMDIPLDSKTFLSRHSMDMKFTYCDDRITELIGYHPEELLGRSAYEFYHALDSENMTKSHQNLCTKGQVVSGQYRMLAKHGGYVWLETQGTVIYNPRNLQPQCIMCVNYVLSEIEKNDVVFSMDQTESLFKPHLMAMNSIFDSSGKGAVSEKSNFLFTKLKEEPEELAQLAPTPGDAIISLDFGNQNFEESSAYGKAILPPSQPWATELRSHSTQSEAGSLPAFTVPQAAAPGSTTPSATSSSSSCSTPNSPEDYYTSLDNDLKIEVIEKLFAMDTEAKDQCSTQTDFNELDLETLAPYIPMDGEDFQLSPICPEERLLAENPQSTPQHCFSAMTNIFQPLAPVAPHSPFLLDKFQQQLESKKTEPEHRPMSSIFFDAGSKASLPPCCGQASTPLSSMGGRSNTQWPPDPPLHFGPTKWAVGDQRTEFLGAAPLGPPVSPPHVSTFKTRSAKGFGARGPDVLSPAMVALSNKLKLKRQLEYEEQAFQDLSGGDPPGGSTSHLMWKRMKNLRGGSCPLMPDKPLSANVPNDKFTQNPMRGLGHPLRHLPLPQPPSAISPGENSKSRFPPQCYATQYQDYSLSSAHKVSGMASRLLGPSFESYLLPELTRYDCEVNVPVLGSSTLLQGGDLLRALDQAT
# Assay: VEGF ELISA Assay
# Settings: VEGF expression in 786-0 cells; VEGF in culture medium by ELISA; four parameter dose-response fit
# Method: The ability of the disclosed compounds to inhibit HIF-2α was measured by determining VEGF expression in 786-0 cells. About 7500 786-0 cells were seeded into each well of a 96-well, white, clear bottom plate (07-200-566, Fisher Scientific) with 200 ul growth medium. Four hours later, compounds were dispensed into wells by Tecan D300e digital dispenser with starting concentration of 10 uM and […] of dilution down to 1 nM as final concentration. Each concentration of treatment was performed in duplicate. About 20 hours later, medium was removed and fresh medium was added, followed by compounds treatment as described above. 24 hours later, cell culture medium was collected to determine VEGF concentration using an ELISA kit (R&D systems, cat #DVE00) following the manufacturer's instruction.
# The EC50 is calculated by GraphPad Prism using the dose-response-inhibition (four parameter) equation. The plate with cells was then subjected to CellTiter-Glo luminescence cell viability assay (Promega) to determine the effect of these compounds on cell numbers after the above treatment.
row,EC50 [nM],SMILES
1,4700,"N#Cc1cc(F)cc(Oc2ccc3c4c2C(F)CCC4(O)C(F)(F)C3(F)F)c1 (single isomer, unassigned) [other of 6a and 6b]"
2,40,"N#Cc1cc(F)cc(Oc2ccc3c4c2C(F)CCC4(O)C(F)(F)C3(F)F)c1 (single isomer, unassigned) [one of 6a and 6b]"
3,403,"N#Cc1cc(F)cc(Oc2ccc3c4c2C(F)CCC4(O)C(F)(F)C3(F)F)c1 (single isomer, unassigned) [the other of 6-1 and 6-2]"
4,35,"N#Cc1cc(F)cc(Oc2ccc3c4c2C(F)CCC4(O)C(F)(F)C3(F)F)c1 (single isomer, unassigned) [one of 6-1 and 6-2]"

# — patent US20220274914A1, “TRICYCLIC DERIVATIVES AS HYPOXIA INDUCIBLE FACTOR-2(ALPHA) INHIBITORS” (NIKANG THERAPEUTICS, INC., priority 2019, published 2022)
